# Assay results as given in PubChem BioAssay AID652083 (The Scripps Research Institute Molecular Screening Center, 2013).
# The list shows a part of the results. Calls of active or inactive are those of the source.
# Test system: Na+ channel (site 2)
# Assay: PubChem AID 652083
# Conditions: CEREP radioligand binding panel, % inhibition at 10 uM, stronger effect = higher value
structure (smiles),measurement,value
COC(=O)c1cc(Br)cnc1N1CCC(NC2CCCCC2)C(O)C1 (stereo unspecified),inhibition of specific binding,active: 67%
